Results on three molecules are retold here after PMC6947571, “An Orthologue of the Retinoic Acid Receptor (RAR) Is Present in the Ecdysozoa Phylum Priapulida” (Genes, 2019).

Protein sequences, listed by entry. Tags and fused reporters are not part of them. Residues count along the entry.
UniProt P13631, 156-454 limits assumed: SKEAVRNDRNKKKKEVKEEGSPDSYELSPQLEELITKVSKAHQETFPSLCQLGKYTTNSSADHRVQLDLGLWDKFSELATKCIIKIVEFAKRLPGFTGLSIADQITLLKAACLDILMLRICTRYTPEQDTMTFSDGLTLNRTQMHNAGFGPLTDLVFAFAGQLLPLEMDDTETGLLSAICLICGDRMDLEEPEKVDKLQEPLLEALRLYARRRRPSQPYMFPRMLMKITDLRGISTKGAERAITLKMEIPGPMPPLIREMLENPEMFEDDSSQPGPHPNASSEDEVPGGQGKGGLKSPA
UniProt A0A5P8FS51, entry or part of it: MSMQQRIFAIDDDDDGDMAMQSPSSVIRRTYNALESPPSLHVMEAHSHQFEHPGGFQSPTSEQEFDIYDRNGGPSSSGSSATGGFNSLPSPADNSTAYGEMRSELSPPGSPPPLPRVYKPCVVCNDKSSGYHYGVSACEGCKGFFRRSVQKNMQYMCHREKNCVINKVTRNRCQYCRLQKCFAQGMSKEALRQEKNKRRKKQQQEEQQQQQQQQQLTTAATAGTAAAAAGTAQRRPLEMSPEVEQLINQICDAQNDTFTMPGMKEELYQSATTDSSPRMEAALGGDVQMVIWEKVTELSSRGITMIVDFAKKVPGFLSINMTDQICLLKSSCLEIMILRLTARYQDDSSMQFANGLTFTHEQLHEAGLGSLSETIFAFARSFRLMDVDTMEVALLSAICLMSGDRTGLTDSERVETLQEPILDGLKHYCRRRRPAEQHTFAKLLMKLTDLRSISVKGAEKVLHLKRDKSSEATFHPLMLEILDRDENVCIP

Read-outs that look alike come from different tables or passages of the source.

Assay [1] has as its target T1, human RAR/RXR heterodimer (pBIND-HsaRARγ-LBD / pACT-HsaRXRγ-LBD) (Homo sapiens, UniProt P13631).
T1 construct: gene RARG
The conditions noted are these: agonist; 10 μM; 24 h; 37 °C; positive control.

Assay [2] addresses T2, HsaRARγ (pBIND-HsaRARγ-LBD) (Homo sapiens, UniProt P13631).
T2 construct: gene RARG
To be noted: agonist; 0.1, 1 and 10 μM; 24 h; 37 °C; positive control.

The target in assay [3] is PcauRAR LBD (trigger factor hybrid protein) (Priapulus caudatus, UniProt A0A5P8FS51). The conditions noted are these: 4 °C, labelled compound.

Consider `CC1=C(/C=C/C(C)=C\C=C\C(C)=C\C(=O)O)C(C)(C)CCC1` [9cisRA], for which the fold-induction entry is “the RAR/RXR heterodimer activates luciferase transcription upon binding to the tested retinoids” in assay [1] and “but at a lesser degree than HsaRARγ (Figure 3A)” in assay [2]. The “competitive radioligand binding, hydroxyapatite precipitation” value in assay [3] (10 nM [3H]ATRA or [3H]9cisRA displaced by unlabelled 9cisRA) is “The ability of PcauRAR to bind to ATRA and 9cisRA was clearly demonstrated”.

As to `CC1=C(/C=C/C(C)=C/C=C/C(C)=C\C(=O)O)C(C)(C)CCC1` [13cisRA], the fold-induction result is “the RAR/RXR heterodimer activates luciferase transcription upon binding to the tested retinoids” in assay [1] and “but at a lesser degree than HsaRARγ (Figure 3A)” in assay [2].

With `CC1=C(/C=C/C(C)=C/C=C/C(C)=C/C(=O)O)C(C)(C)CCC1` [ATRA], the fold-induction entry is reported as “the RAR/RXR heterodimer activates luciferase transcription upon binding to the tested retinoids” in assay [1] and “but at a lesser degree than HsaRARγ (Figure 3A)” in assay [2]. Also, the “competitive radioligand binding, hydroxyapatite precipitation” value in assay [3] (10 nM [3H]ATRA displaced by unlabelled ATRA) was “The ability of PcauRAR to bind to ATRA and 9cisRA was clearly demonstrated”.
